Source: paper PMC3203879 (PLoS ONE, 2011)

Experiments:
[1] = target: T1, human plasma derived thrombin (Homo sapiens, UniProt P00734); test: biochemical; settings: SD; for IC50: IC50 (nM), thrombin 1.65 nM, S2238 100 µM, 50 mM Tris pH 7.4, 100 mM NaCl, 1 mg/ml BSA, room temperature, n = 3, ± S.D.
[2] = target: T1, human plasma derived thrombin

For CC[C@H](C)[C@H](NC(=O)[C@H](C)NC(=O)[C@H](CCC(=O)O)NC(=O)[C@H](Cc1ccccc1)NC(=O)[C@H](CC(=O)O)NC(=O)[C@H](Cc1ccccc1)NC(=O)[C@@H]1CCCN1C(=O)[C@@H]1CCCN1C(=O)[C@H](C)NC(=O)[C@@H](NC(=O)[C@H](CCCCN)NC(=O)[C@H](Cc1c[nH]cn1)NC(=O)[C@H](CCSC)NC(=O)[C@H](CCCCN)NC(=O)[C@@H]1CCCN1C(=O)[C@H](CCC(=O)O)NC(=O)[C@H](C)NC(=O)[C@@H](NC(=O)[C@@H](N)CC(=O)O)C(C)C)[C@@H](C)O)C(=O)N1CCC[C@H]1C(=O)N[C@@H](CCC(=O)O)C(=O)N[C@@H](CCC(=O)O)C(=O)N[C@@H](Cc1ccc(OP(=O)(O)O)cc1)C(=O)N[C@@H](CC(C)C)C(=O)O [DV24Y^phos], the IC50 ([1]; pre-incubation 0 min) was 8.67 ± 0.45 nM, the IC50 ([1]; pre-incubation 20 min) was 12.4 ± 1.2 nM and the Ki [1] was 0.327 ± 0.032 nM.

CC[C@H](C)[C@H](NC(=O)[C@H](C)NC(=O)[C@H](CCC(=O)O)NC(=O)[C@H](Cc1ccccc1)NC(=O)[C@H](CC(=O)O)NC(=O)[C@H](Cc1ccccc1)NC(=O)[C@@H]1CCCN1C(=O)[C@@H]1CCCN1C(=O)[C@H](C)NC(=O)[C@@H](NC(=O)[C@H](CCCCN)NC(=O)[C@H](Cc1c[nH]cn1)NC(=O)[C@H](CCSC)NC(=O)[C@H](CCCCN)NC(=O)[C@@H]1CCCN1C(=O)[C@H](CCC(=O)O)NC(=O)[C@H](C)NC(=O)[C@@H](NC(=O)[C@@H](N)CC(=O)O)C(C)C)[C@@H](C)O)C(=O)N1CCC[C@H]1C(=O)N[C@@H](CCC(=O)O)C(=O)N[C@@H](CCC(=O)O)C(=O)N[C@@H](Cc1ccc(OS(=O)(=O)O)cc1)C(=O)N[C@@H](CC(C)C)C(=O)O [DV24Y^sulf] was tested, and the IC50 ([1]; pre-incubation 0 min) was 1.66 ± 0.18 nM, the IC50 ([1]; pre-incubation 20 min) was 2.02 ± 0.29 nM and the Ki [1] was 0.056 ± 0.018 nM.

For CC[C@H](C)[C@H](NC(=O)[C@H](C)NC(=O)[C@H](CCC(=O)O)NC(=O)[C@H](Cc1ccccc1)NC(=O)[C@H](CC(=O)O)NC(=O)[C@H](Cc1ccccc1)NC(=O)[C@@H]1CCCN1C(=O)[C@@H]1CCCN1C(=O)[C@H](C)NC(=O)[C@@H](NC(=O)[C@H](CCCCN)NC(=O)[C@H](Cc1c[nH]cn1)NC(=O)[C@@H](N)CCSC)[C@@H](C)O)C(=O)N1CCC[C@H]1C(=O)N[C@@H](CCC(=O)O)C(=O)N[C@@H](CCC(=O)O)C(=O)N[C@@H](Cc1ccc(OS(=O)(=O)O)cc1)C(=O)N[C@@H](CC(C)C)C(=O)O [MH18Y^sulf], the IC50 ([1]; pre-incubation 0 min) was 1.26 ± 0.18 nM, the IC50 ([1]; pre-incubation 20 min) was 1.17 ± 0.14 nM and the Ki [1] was 1.25 ± 0.18 nM.

Molecule NC(N)=NCCC[C@H](NC(=O)[C@@H]1CCCCN1C(=O)[C@H](N)Cc1ccccc1)C(=O)Nc1ccc([N+](=O)[O-])cc1 [S2238, H-D-Phe-pipecolyl-Arg-pNA•2HCl, reference compound] has a Km ([2]; read-out: Michaelis-Menten constant (Km) of S2238 for thrombin, human plasma derived thrombin, 50 mM Tris pH 7.4, 100 mM NaCl, 1 mg/ml BSA, room temperature, 405 nm) of 3.32 ± 0.35 µM.

With DVAEPKMAKTAPPFDFEAIPEEYL [DV24H12A] the IC50 ([1]; pre-incubation 0 min) was 48.2 ± 12.4 nM, the IC50 ([1]; pre-incubation 20 min) was 141 ± 11 nM and the Ki [1] was 3.23 ± 0.48 nM.

In the case of MAKTAPPFDFEAIPEEYL [MH18H12A], the “maximum inhibition of thrombin” value ([2]; saturates, highest concentration used 30 µM) is reported as about 80%, the IC50 ([1]; pre-incubation 0 min) is reported as 328 ± 23 nM and the IC50 ([1]; pre-incubation 20 min) is reported as 343 ± 46 nM. For the same molecule, the Ki [1] was 329 ± 8 nM.

Ends that are not written are not given here.
